Laboratory results as given in article PMC3252466 (Chirality, 2011).
pIC50: −log10 of the molar value. Where two headings read alike, the source gives them in different places.

Chains of the proteins cited; added tags and fusions are not shown.
UniProt P33261, whole entry: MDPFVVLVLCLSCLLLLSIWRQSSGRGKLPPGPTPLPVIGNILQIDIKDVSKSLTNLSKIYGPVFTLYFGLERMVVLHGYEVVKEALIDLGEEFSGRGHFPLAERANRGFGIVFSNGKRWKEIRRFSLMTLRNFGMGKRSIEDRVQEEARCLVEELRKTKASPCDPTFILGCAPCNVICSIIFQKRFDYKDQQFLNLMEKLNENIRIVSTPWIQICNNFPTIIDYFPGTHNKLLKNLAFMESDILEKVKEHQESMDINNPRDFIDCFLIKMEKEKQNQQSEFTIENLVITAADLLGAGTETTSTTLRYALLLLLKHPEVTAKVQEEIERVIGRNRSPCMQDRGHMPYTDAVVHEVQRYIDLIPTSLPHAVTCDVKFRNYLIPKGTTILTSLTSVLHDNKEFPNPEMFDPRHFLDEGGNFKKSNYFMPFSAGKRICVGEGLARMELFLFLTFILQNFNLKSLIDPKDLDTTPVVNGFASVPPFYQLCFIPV
UniProt P11712, whole entry: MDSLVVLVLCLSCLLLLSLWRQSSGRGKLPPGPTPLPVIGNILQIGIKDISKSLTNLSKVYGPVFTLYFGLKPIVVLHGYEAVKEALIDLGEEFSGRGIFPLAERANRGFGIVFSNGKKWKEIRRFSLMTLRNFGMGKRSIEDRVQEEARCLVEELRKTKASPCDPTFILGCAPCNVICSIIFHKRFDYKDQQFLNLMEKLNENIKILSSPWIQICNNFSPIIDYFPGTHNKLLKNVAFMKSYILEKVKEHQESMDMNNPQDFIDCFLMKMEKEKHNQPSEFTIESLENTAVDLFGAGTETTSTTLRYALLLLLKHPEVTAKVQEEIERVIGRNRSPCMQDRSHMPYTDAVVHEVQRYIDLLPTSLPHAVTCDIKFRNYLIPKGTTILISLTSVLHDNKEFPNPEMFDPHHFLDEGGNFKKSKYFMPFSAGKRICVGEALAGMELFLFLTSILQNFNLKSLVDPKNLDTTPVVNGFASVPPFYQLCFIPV

Tests used:
[1] = target: human CYP2C19 (Homo sapiens, UniProt P33261); details: read-out: IC50 CYP2C19, recombinant human CYP2C19 7.5 nM, 25 μM CEC, 30 min, 37°C, mean (95% confidence interval)
[2] = target: human CYP2C9 (Homo sapiens, UniProt P11712); details: read-out: IC50 CYP2C9, recombinant human CYP2C9 15 nM, 150 μM MFC, 45 min, 37°C, mean (95% confidence interval)

naringenin [rac-naringenin]
pIC50 [1]: 5.59
pIC50 ([1]; listed as Naringenin): > 5.30
pIC50 [2]: 5.59
pIC50 ([2]; listed as Naringenin): > 5.30
